For the data set the following is noted: human, in vivo. The method, then: NRTI concentrations were measured by a validated method on ultra-performance liquid chromatography (ACQUITY, Waters) in plasma samples collected at study baseline. Briefly, 200 μL of plasma was subjected to solid phase extraction (MCX cartridge, Waters) and the elutants were dried under nitrogen stream before being re-constituted in 50 μL of water. The NRTI drugs were separated using a C18 BEH column (1.7 μm, 2.1 mm x 100 mm, Waters). For each of the four NRTIs, population PK models were determined using nonlinear mixed effects (NONMEM v.7.3) using the $PRIOR subroutine to stabilise the models and aid partition of inter-individual and residual variabilities. The impact of covariates on antiretroviral apparent oral clearance was evaluated. […] Model fit was assessed by statistical and graphical methods. […]
Continuous variables, including PK parameters and cognitive z-scores, were summarized using the median and the interquartile range (IQR); categorical variables were described using frequencies and percentages. Associations between NRTI PK parameters and cognitive z-scores were assessed using a series of rank regression models, one for each combination of cognitive domain/global score, NRTI and PK parameter (7x4x3 models). […]

We go through one compound from article PMC8294567, “Associations between plasma nucleoside reverse transcriptase inhibitors concentrations and cognitive function in people with HIV” (PLoS ONE, 2021).

Each structure is given as a SMILES string.

Regarding `Nc1nc(=O)n([C@@H]2CS[C@H](CO)O2)cc1F` [FTC, emtricitabine], the “Eta^2, eGFR vs AUC0-24” value is recorded as 0.136.
